PubChem BioAssay AID662 (National Center for Advancing Translational Sciences (NCATS), 2007)
The list shows a part of the results, in another mix than the full data. Records with an inconclusive call do not appear. Active and inactive are the calls of the source. Calls come from the whole dose curve; as a rule, active = well fitted activation curve with a large enough effect in the signal ratio, with a control signal flat (not every such curve was filed as active); inconclusive = small, poorly fitted or top-dose-only effect, or effect the other way, or a change in a side signal; inactive = flat fitted curve, though single readings scatter; the % refers to the signal ratio.

Assay: Cell signaling CRE-BLA (Fsk stim); note: % of control where 0% means no effect
Conditions: CHO CRE-bla reporter (cAMP response element driving beta-lactamase), forskolin EC10, beta-lactamase ratio; at 38.2 µM (top of the series) unless noted
Description: NIH Molecular Libraries Screening Centers Network [MLSCN]
NIH Chemical Genomics Center [NCGC]
Assay Provider: Marshall W. Nirenberg, U.S. National heart lung & blood institute
Memories persist for different lengths of time, from seconds or minutes to a lifetime. There are two kinds of memory: short-term memory (STM) and long-term memory (LTM). STM lasts for minutes to hours, which maybe mediated by modifications of molecules involved in synaptic functions. LTM lasts for days or longer, and may be due to the formation of new synapses or restructuring of existing synapses. LTM, but not STM, requires gene transcription and synthesis of proteins. CREB (cyclic-AMP Responsive Element Binding Protein) is one of the candidates plays an important role for enhancement of some types of LTM. CREB, a family of transcription factors, regulates the transcription of genes containing cAMP Responsive Elements (CRE). CRE is a nucleotide sequence often found in the promoter regions of genes that are binding sites for CREB.
Using a beta-lactamase reporter-gene under control of cAMP responsive element, a cell-based assay [CellSensor(TM) CRE-bla CHO developed by Invitrogen Corp.] was used to measure forskolin-induced signaling. Library compounds were measured for their ability to modulate positively or negatively the action of EC10 NKH 477, a water soluble forskolin, on reporter gene activity. Compounds were screened in a titration series in 1536-well format. Positive and negative modulators were identified based on the AC50 values derived from the screening data.
NCGC Assay Protocol Summary
2000 cells/5uL in Opti-MEM medium containing 0.5% dialyzed FBS, 0.1 mM NEAA, 1 mM sodium pyruvate and 10 mM HEPES was dispensed into 1536-well plates and cells were cultured at 37 degrees Celsius overnight. […] And then the plates were incubated at 37 degrees Celsius for 3 hours. 1 uL of CCF4-dye mixture was added to each well. After incubated at room temperature for 2 hours the plates were measured on an EnVision plate reader at Excitation 405nm, Emission1=460nm and Emission 2=530nm. The %Activity was determined from the ratio of 460nm/530nm.
Keywords: NIH Roadmap, MLSCN, MLSMR, qHTS, NCGC, CRE, beta-lactamase reporter-gene assay.

Compound	activity change, negative = inhibition
C/C1=C2N=C(/C=C3N=C(/C(C)=C4\[N-][C@@](C)([C@H]5N=C1[C@@](C)(CCC(=O)NC[C@H](C)OP(=O)([O-])O[C@@H]1[C@H](O)[C@H](n6cnc7cc(C)c(C)cc76)O[C@@H]1CO)[C@@H]5CC(N)=O)[C@](C)(CC(N)=O)[C@H]4CCC(N)=O)[C@@](C)(CC(N)=O)[C@@H]\3CCC(N)=O)C(C)(C)[C@@H]/2CCC(N)=O.[C-]#N.[Co+3]	inactive: 4.39% [at 17.1 µM]
N#[O+].[C-]#N.[C-]#N.[C-]#N.[C-]#N.[C-]#N.[Fe+2].[Na+].[Na+]	inactive: 5.6%
COc1ccccc1OP(C)(=O)Nc1c(C)n(C)n(-c2ccccc2)c1=O (stereo not given)	inactive: -3.92%
CP(=O)(Oc1ccccc1)N1CCOC1=O (stereo not given)	inactive: -0.243%
CP(=O)(Nc1ccccn1)Oc1ccccc1 (stereo not given)	inactive: 2.37%
COc1ccccc1OP(C)(=O)Nc1ccc(C)c(C)c1 (stereo not given)	inactive: 5.63%
Cc1nc2ccc3ccccc3c2o1.O=[N+]([O-])c1cc([N+](=O)[O-])c(O)c([N+](=O)[O-])c1	inactive: -14.1%
CCC(C)(OO)OOC(C)(CC)OO (stereo not given)	inactive: 4.68%
CCOP(C)(=S)SCC(=O)NC(C)(CC)C(=O)O (stereo not given)	inactive: 28.4%
CCOP(=O)(CC)OCC	inactive: 9.29%
CP(=O)(Nc1ccc2c(c1)OCCO2)Oc1ccccc1 (stereo not given)	inactive: 6.49%
[NH4+].[O-][Cl+3]([O-])([O-])[O-]	inactive: -19.4%
NNC(NN)NN.n1nc(-c2nn[nH]n2)n[nH]1	inactive: 5.97% [at 7.6 µM]
CN(C)CCOC(=O)C(O)(c1ccccc1)C1CCCCC1 (stereo not given)	inactive: -4.66%
Cc1c([N+](=O)[O-])cccc1[N+](=O)[O-]	inactive: -7.97%
Cc1nc2ccc3ccccc3c2s1.O=[N+]([O-])c1cc([N+](=O)[O-])c(O)c([N+](=O)[O-])c1	inactive: 5.16%
Cc1ccc(C)c(NP(C)(=O)Oc2ccccc2)c1 (stereo not given)	inactive: 2.08%
O=[N+]([O-])c1cccc([N+](=O)[O-])c1	inactive: -19.5%
Cc1ccc([N+](=O)[O-])cc1[N+](=O)[O-]	inactive: -10.1%
COc1ccccc1OP(C)(=O)Nc1ccc(C)cc1 (stereo not given)	inactive: 11.4%
Cc1ccc(NP(C)(=O)Oc2ccccc2)c(C)c1 (stereo not given)	inactive: -2.06%
O=[N+]([O-])[O-].[NH4+]	inactive: -7.69%
CCOP(C)(=S)SCC(=O)NC(C)C(=O)O (stereo not given)	inactive: 7.08%
N1=C(c2nnc(-c3nn[nH]n3)nn2)NNN1	inactive: -2.3% [at 7.6 µM]
CP(=S)(Nn1cnnc1)Oc1ccccc1 (stereo not given)	inactive: -12%
